Our source for the Km values is PMC10499793 (Nature Communications, 2023).

The data set concerns Cc1ncc(C[n+]2csc(CCO)c2C)c(N)n1. Kind of data set: purified protein. The settings on record: pH 7.2; 37.0 °C.

Broadly, the Km is the concentration of substrate that gives half-maximal velocity. Regarding CcThi1 (Corallococcus sp. EGB), the Km came to 22.3 µM.
